Measured values: patent US11179348B2, “Combination comprising pterostilbene for the treatment of cancer” (FUNDACIÓN UNIVERSIDAD CATÓLICA DE VALENCIA SAN VICENTE …, priority 2015, dated 2021)

Test system: A2058 cells isolated from tumor-bearing mice
Assay: Chemosensitization of cultured A2058 cells isolated from xenografts
Type: cell-based, human
Settings: isolated A2058 cells without in vivo Pter treatment; culture time 72 h
Method: FIG. 5. Chemosensitization effect of GSH depletion (A) or sod1-AS (B) in melanoma cells isolated from Pter-treated mice. Melanoma cells were cultured as in FIG. 1C. PAC.PBP (100 ng/ml) was added to the culture flasks 24 h after seeding. DEM (0.1 mM) was added 6 h later, whereas sod1-AS (10 mM) were added 12 h after seeding [complexation with lipofectamine 2000 (Invitrogen) was used to facilitate sod1-AS uptake by the cells]. Data are mean values±SD for 5-6 different experiments (*p<0.01, comparing all experimental conditions vs controls).
FIGS. 18-25. Effect of piperlongumine and I-BET762, as GSH depleting and chemosensitizing agents, in in vitro growing human melanoma, pancreatic, breast, lung, liver, prostate, ovarian, and colorectal cancer cells. Cancer cells, isolated from Pter-treated tumor-bearing mice, were cultured as indicated under Methods. […]
Human A2058, MeWo and MelJuso melanoma cells, and mouse AtT-20 pituitary corticotroph tumor cells were from the American Type Culture Collection (ATCC). […] Cell numbers were determined using a Coulter Counter (Coulter Electronic Inc., Miami, Fla.). […] Cellular viability was assessed as previously reported (Mena, S. et al. Clin Cancer Res 13, 2658-2666 (2007)), by measuring trypan blue exclusion and leakage of lactate dehydrogenase activity. […]

Question: Diethylmaleate [DEM] was tested. Which Cell viability did it give?
Answer: 96 ± 2%
